Source: patent publication US20140045746A1 (Merck Sharp & Dohme Corp., priority 2012, published 2014)

Amino acid sequences for entries named in this document (tags omitted).
UniProt O14842, whole entry: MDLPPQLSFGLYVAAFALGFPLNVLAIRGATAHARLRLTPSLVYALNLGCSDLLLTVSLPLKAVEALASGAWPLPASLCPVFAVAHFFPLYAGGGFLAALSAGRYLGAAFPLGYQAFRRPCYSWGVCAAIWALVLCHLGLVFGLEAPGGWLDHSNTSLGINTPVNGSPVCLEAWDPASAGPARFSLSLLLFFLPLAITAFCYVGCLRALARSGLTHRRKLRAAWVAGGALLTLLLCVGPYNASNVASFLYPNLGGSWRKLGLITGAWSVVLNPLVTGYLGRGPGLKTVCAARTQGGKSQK

Columns and labels:
[1] = target: T1, hGPR40 (Homo sapiens, UniProt O14842); assay: GPR40 FLIPR assay (agonist-induced calcium mobilization); type: cell-based; design: expressed in transfected cells; host or cells: CHO cells stably expressing NFAT BLA (beta-lactamase); conditions: GPR40/CHO NFAT BLA cells;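 note: calcium mobilization in the cells read as fluorescence of fluo-4 AM loaded cells on FLIPR after compound addition, cells preloaded with dye 100 min at room temperature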
From the text: (§1) Human and mouse GPR40 stable cell-lines were generated in CHO cells stably expressing NFAT BLA (Beta-lactamase). A human GPR40 stable cell-line was generated in HEK cells stably expressing the aequorin expressing reporter. The expression plasmids were transfected using lipofectamine (Life Technologies) following manufacturer's instructions. Stable cell-lines were generated following drug selection.

[2] = target: T1, hGPR40; assay: GPR40 Inositol Phosphate Turnover (IP1) Assay; type: cell-based; design: expressed in transfected cells; host or cells: HEK cells stably expressing the aequorin reporter; conditions: HEK cells stably expressing human GPR40; 0% serum; read-out: hGPR40 IP1 EC50 (0% serum)
From the text: as §1

Row | EC50 [1] [nM] | EC50 [2] [nM] | Structure (SMILES)
1 | 23 | – | Cc1nc(OCCCC(C)(C)O)ccc1-c1ccc(F)c(COc2cc3c(cn2)[C@H]2[C@@H](C3)[C@@H]2C(=O)O)c1 [Compound 7-7, (5aR,6S,6aS)-3-((2-fluoro-5-(6-((4-hydroxy-4-methylpentyl)oxy)-2-methylpyridin-3-yl)benzyl)oxy)-5,5a,6,6a-tetrahydrocyclopropa[4,5]cyclopenta[1,2-c]pyridine-6-carboxylic acid]
2 | 23 | – | Cc1cc(OCC2(F)CCOCC2)cc(C)c1-c1cccc(COc2cc3c(cn2)[C@H]2[C@@H](C3)[C@@H]2C(=O)O)c1 [Compound 9-8, (5aR,6S,6aS)-3-((4′-((4-fluoro-tetrahydro-2H-pyran-4-yl)methoxy)-2′,6′-dimethyl-[1,1′-biphenyl]-3-yl)methoxy)-5,5a,6,6a-tetrahydrocyclo-propa[4,5] cyclopenta[1,2-c] pyridine-6-carboxylic acid]
3 | – | 3.5 | Cc1c(COc2cc3c(cn2)[C@H]2[C@@H](C3)[C@@H]2C(=O)O)cccc1-n1c(C(F)(F)F)nc2ccc(F)c(F)c21 [Compound 32-8, (5aR,6S,6aS)-3-((3-(6,7-difluoro-2-(trifluoromethyl)-1H-benzo[d]imidazol-1-yl)-2-methylbenzyl)oxy)-5,5a,6,6a-tetrahydrocyclopropa[4,5]cyclopenta[1,2-c]pyridine-6-carboxylic acid]

Row | Structure (SMILES) | EC50 [1] [nM] | EC50 [2] [nM]
4 | CC(C)(O)CCOc1cc(C(F)(F)F)c(-c2ccc(F)c(COc3cc4c(cn3)[C@H]3[C@@H](C4)[C@@H]3C(=O)O)c2)cn1 [Compound 20-7, (5aR,6S,6aS)-3-((2-fluoro-5-(6-(3-hydroxy-3-methylbutoxy)-4-(trifluoromethyl)pyridin-3-yl)benzyl)oxy)-5,5a,6,6a-tetra-hydrocyclo-propa[4,5] cyclopenta [1,2-c]pyridine-6-carboxylic acid] | 23 | –
